# Yeast mating assay 2: variants of the scFv Ab-95

Antigen: PDVDLGDISGINAS, a 14-residue peptide of the SARS-CoV-2 spike HR2 region.

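Phage display of a naive human antibody library on the peptide gave the parent. Variants in AAYL52 differ from the parent at up to three CDR positions; double and triple changes were sampled at random. In AlphaSeq, yeast of one mating type display the scFv and yeast of the other type display the target. Mating (16 h, 30 °C) was followed by selection of diploids and sequencing of their barcodes. A regression on co-assayed BCL2-family reference pairs converts the normalised counts of each replicate to an apparent Kd. There are three technical replicates.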

Parent scFv Ab-95: VH joined to VL by a (GGGGS)3 linker. Changes lie in the light chain CDRs alone.
VH: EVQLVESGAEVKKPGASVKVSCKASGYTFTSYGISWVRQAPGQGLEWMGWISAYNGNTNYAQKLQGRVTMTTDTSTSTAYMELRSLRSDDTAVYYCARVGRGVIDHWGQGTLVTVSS
VL: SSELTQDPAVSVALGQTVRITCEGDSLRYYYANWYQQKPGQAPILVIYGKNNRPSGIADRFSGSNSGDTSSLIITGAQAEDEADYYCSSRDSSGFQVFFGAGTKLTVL

Variants are written as CDR1, CDR2 and CDR3 of the light chain (limits as in the source). Parent: EGDSLRYYYAN, GKNNRPS, SSRDSSGFQVF.
Numbers give log10(Kd / nM), so 0 is 1 nM and 3 is 1 µM. Smaller is tighter.
"ND" marks a missing value. The strain was present, yet no cells mated with the target were sequenced in that replicate, which points to weak or no binding.
Parent in this assay: reference entry 2.31, copy in this library 2.25.
Background: pairings of library AAYL52 with three empty control strains gave a value in 28% of cases (median 3.91, 5th percentile 2.90). Values in that range, when seen in few replicates, are hard to tell from nonspecific mating. Also given: how often the same scFv was detected with the empty control strains, with their mean in brackets.

{"CDR-L1": "EGDSLRYYYAN", "CDR-L2": "GKNNRPC", "CDR-L3": "SSRDDSGFQVS", "log10 Kd (nM) by replicate": "4.25 / 4.25 / ND", "control signals": "1/9 (4.11)"}
{"CDR-L1": "EGDSLRYYYAP", "CDR-L2": "GKNCRPS", "CDR-L3": "SSRWSSGFQVF", "log10 Kd (nM) by replicate": "3.85 / 4.68 / 3.65", "control signals": "2/9 (3.74)"}
{"CDR-L1": "EGDWLRYNYAN", "CDR-L2": "GKNARPS", "CDR-L3": "SSRDSSGFQVF", "log10 Kd (nM) by replicate": "1.35 / 1.12 / 0.72", "control signals": "1/9 (5.45)"}
{"CDR-L1": "EGDSLRYYYAN", "CDR-L2": "GKNNRPS", "CDR-L3": "SWRPMSGFQVF", "log10 Kd (nM) by replicate": "3.76 / 2.26 / 3.28", "control signals": "3/9 (4.02)"}
{"CDR-L1": "EGCSLHYYYAN", "CDR-L2": "GKNNRPM", "CDR-L3": "SSRDSSGFQVF", "log10 Kd (nM) by replicate": "4.40 / 3.10 / ND", "control signals": "3/9 (3.94)"}
{"CDR-L1": "EGDRLTYYYAN", "CDR-L2": "GKNNRPS", "CDR-L3": "SSRDSSGLQVF", "log10 Kd (nM) by replicate": "ND / ND / ND", "control signals": "0/9"}
{"CDR-L1": "EGDTLRYYYDN", "CDR-L2": "GKNNRAS", "CDR-L3": "SSRDSSGFQVF", "log10 Kd (nM) by replicate": "4.76 / 4.67 / 4.72", "control signals": "5/9 (4.25)"}
{"CDR-L1": "EGDSLRYYYAN", "CDR-L2": "GWNNRPS", "CDR-L3": "SSRDSFGNQVF", "log10 Kd (nM) by replicate": "3.98 / 3.51 / ND", "control signals": "5/9 (4.03)"}
{"CDR-L1": "EGDSLRYYYAN", "CDR-L2": "AKNNRPI", "CDR-L3": "SSRDSSGFQVW", "log10 Kd (nM) by replicate": "4.21 / 3.81 / ND", "control signals": "3/9 (3.47)"}
{"CDR-L1": "EGWSLRYYYAN", "CDR-L2": "GKNNRPS", "CDR-L3": "SSRDSCGFAVF", "log10 Kd (nM) by replicate": "5.05 / ND / ND", "control signals": "2/9 (4.12)"}
{"CDR-L1": "EGDSHRYYYAN", "CDR-L2": "GKNNRPS", "CDR-L3": "SKRDSSGFQYF", "log10 Kd (nM) by replicate": "3.33 / 4.09 / ND", "control signals": "1/9 (3.39)"}
{"CDR-L1": "EGWSLRYYYAN", "CDR-L2": "GVNWRPS", "CDR-L3": "SSRDSSGFQVF", "log10 Kd (nM) by replicate": "ND / 4.05 / ND", "control signals": "0/9"}
{"CDR-L1": "EGDSLRYYYVN", "CDR-L2": "GKNNRVS", "CDR-L3": "SSRDSYGFQVF", "log10 Kd (nM) by replicate": "4.67 / ND / ND", "control signals": "3/9 (3.31)"}
{"CDR-L1": "EVDSLRYYYAN", "CDR-L2": "MKNNRPS", "CDR-L3": "YSRDSSGFQVF", "log10 Kd (nM) by replicate": "3.97 / ND / ND", "control signals": "2/9 (3.43)"}
{"CDR-L1": "EGDDLRYYYFN", "CDR-L2": "GKNNRPS", "CDR-L3": "SSRDSEGFQVF", "log10 Kd (nM) by replicate": "ND / ND / ND", "control signals": "4/9 (3.33)"}
{"CDR-L1": "EGDSLRYYYGN", "CDR-L2": "GKNNAPS", "CDR-L3": "SSRDSSGFQVV", "log10 Kd (nM) by replicate": "3.90 / ND / ND", "control signals": "3/9 (4.07)"}
{"CDR-L1": "EGDSGRYYYAN", "CDR-L2": "GKNNRPS", "CDR-L3": "ASADSSGFQVF", "log10 Kd (nM) by replicate": "ND / 5.68 / ND", "control signals": "6/9 (4.39)"}
{"CDR-L1": "EGDQLRYYYAN", "CDR-L2": "GKNNRPS", "CDR-L3": "SSRDICGFQVF", "log10 Kd (nM) by replicate": "5.13 / ND / 3.88", "control signals": "4/9 (3.86)"}
{"CDR-L1": "EGDSLRYYYFN", "CDR-L2": "GKNYRPS", "CDR-L3": "SSRDSSGFQDF", "log10 Kd (nM) by replicate": "ND / ND / ND", "control signals": "2/9 (3.60)"}
{"CDR-L1": "EGDSLRYYYAN", "CDR-L2": "GKNNRPG", "CDR-L3": "STRYSSGFQVF", "log10 Kd (nM) by replicate": "2.92 / 2.34 / 2.23", "control signals": "3/9 (4.20)"}

The opening 2 entries, copied out:

| CDR-L1 | CDR-L2 | CDR-L3 | log10 Kd (nM) by replicate | control signals |
|---|---|---|---|---|
| EGDSLRYYYAN | GKNNRPC | SSRDDSGFQVS | 4.25 / 4.25 / ND | 1/9 (4.11) |
| EGDSLRYYYAP | GKNCRPS | SSRWSSGFQVF | 3.85 / 4.68 / 3.65 | 2/9 (3.74) |

The measurements come from Engelhart et al. 2022 (doi:10.1038/s41597-022-01779-4) through the FLAb antibody collection.